The source of these data is ChEMBL document CHEMBL5614453, “Study of Chalcogen Aspirin Derivatives with Carbonic Anhydrase Inhibitory Properties for Treating Inflammatory Pain” (ACS Med Chem Lett, 2024).

The target in the assay is Carbonic anhydrase 2 (Homo sapiens, UniProt P00918). The assay can be described thus: Inhibition of human CA2 preincubated for 15 mins by phenol red dye based stopped flow CO2 hydration assay.

The structures appear in SMILES notation. Some results are limits rather than exact numbers.

As to `CC(=O)Oc1ccccc1C(=O)O` [ASPIRIN], the inhibitory constant (Ki) (in general, a measure of affinity in units of concentration, obtained from inhibition or displacement) is above 100 µM.
